The test in a line: Inhibition of thrombin-induced platelet aggregation in human.

Usually IC50 stands for the concentration at which inhibition is half-maximal. A low value points to greater potency in that assay. Consider `Oc1ccc(/C=C/c2cc(O)cc(O)c2)cc1` [5-[(E)-2-(4-hydroxyphenyl)ethenyl]benzene-1,3-diol], for which the midpoint of inhibition, the IC50, lay at 196 µM.

Values taken from BindingDB's records for doi:10.1016/j.bmcl.2005.10.013 (Universidad De Santiago De Compostela, 2005).
